Experimental data as given in patent publication US10596172B2 (dated 2020).

The substances below were run against EGFR-WT (Homo sapiens (Human), UniProt P00533) (assay: Omnia assay for potency assessment against EGFR (WT)). Conditions: read-out: EGFR Wild Type Inhibition.
“N-(3-(5-fluoro-2-(3-(2-(2-oxopyrrolidin-1-yl)ethoxy)phenylamino)pyrimidin-4-ylamino)phenyl)acrylamide [Compound I-164]” showed an IC50 of 0.01 to 0.1 µM. “N-(3-(5-fluoro-2-(3-(2-(2-oxopyrrolidin-1-yl)ethoxy)phenylamino)pyrimidin-4-yloxy)phenyl)acrylamide [Compound I-184]” gave an IC50 of less than 0.01 µM. Work on “N-(3-(5-fluoro-2-(4-(3-methylsulfonylpropoxy)phenyl)aminopyrimidin-4-ylamino)phenyl)acrylamide [Compound I-97]” yielded an IC50 of 0.01 to 0.1 µM.
